Results published in US20070196883A1, “ENZYME” (UNIVERSITY OF DUNDEE, priority 1999, published 2007).

The chains behind the UniProt entries cited, without tags or fusion partners. Where a name states a change or a piece, a line headed by the entry shows the natural chain unless it says otherwise.
UniProt P31749: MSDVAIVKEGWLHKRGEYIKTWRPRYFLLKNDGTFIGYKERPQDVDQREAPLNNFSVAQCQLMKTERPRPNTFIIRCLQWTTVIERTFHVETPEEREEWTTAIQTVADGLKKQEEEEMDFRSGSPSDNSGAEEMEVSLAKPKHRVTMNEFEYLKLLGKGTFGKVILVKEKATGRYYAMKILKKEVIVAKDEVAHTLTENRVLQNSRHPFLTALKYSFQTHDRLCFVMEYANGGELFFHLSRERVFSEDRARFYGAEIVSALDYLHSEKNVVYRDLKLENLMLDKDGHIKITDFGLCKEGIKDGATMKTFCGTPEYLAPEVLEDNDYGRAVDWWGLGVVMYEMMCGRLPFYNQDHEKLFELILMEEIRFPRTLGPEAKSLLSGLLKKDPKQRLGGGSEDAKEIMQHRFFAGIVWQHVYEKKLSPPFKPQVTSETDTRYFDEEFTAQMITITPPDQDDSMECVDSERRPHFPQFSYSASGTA

Target: T1, GST-PKBα (Homo sapiens, UniProt P31749)
T1 construct: made in house; host or cells: 293 cells (pEBG2T)
Assay: Two-stage PKBα activation assay (maximum specific activity)
Format: biochemical
Conditions: MgATP and PtdIns(3,4,5)P3
Description: FIG. 4. Incubation of PIF with PKBα induces phosphorylation of PKBα at both Thr308 and Ser473. GST-PKBα (A) or GST-S473D-PKBα (B) was incubated at 30° C. for 1 h with MgATP in the presence of either His-PDK1 (0.1 μg) or GST-PIF purified from 293 cells which is associated with endogenous PDK1 (1 μg termed GST-PIF/PDK1) in the presence or absence of phospholipid vesicles containing 100 μM PtdCho, 100 μM PtdSer, and 10 μM sn-1-stearoyl-2-arachidonoyl-D-PtdIns(3,4,5)P3. The increase in specific activity of GST-PKBα was determined, relative to a control incubation in which His-PDK1 or GST-PIF was omitted (average for 6 determinations, two independent experiments). […] Between 50-70% of the radioactivity applied to the column was recovered in the major ^32P-containing peptides eluting at 24% and 26% acetonitrile, which were identified (see results) as the PKBα tryptic peptides phosphorylated at Ser473 and Thr308 respectively. […]
In Stage 1, an 15 μl reaction mixture was set up containing 66.5 mM Tris/HCl pH 7.5, 0.13 mM EGTA, 0.13% (by vol) 2-mercaptoethanol, 3.3 μM PKI, 1.3 μM microcystin-LR, 13.3 mM Mg(Ac)2, 133 μM unlabelled ATP, 0.4 μM GST-PKBA, 133 μM PtdSer, 133 μM PtdCho in the presence or absence of 13.3 μM PtdIns(3,4,5)P3. […] The papers were washed in 75 mM phosphoric acid and analysed as described previously. […] The basal GST-PKBα activity is the activity measured in the absence of PDK1. […]

B1: His-PDK1: Myc-PDK1 with an N-terminal hexahistidine sequence, expressed in Sf21 insect cells (protein)
chain: MARTTSQLYDAVPIQSSVVLCSCPSPSMVRTQTESSTPPGIPGGSRQGPAMDGTAAEPRPGAGSLQHAQPPPQPRKKRPEDFKFGKILGEGSFSTVVLARELATSREYAIKILEKRHIIKENKVPYVTRERDVMSRLDHPFFVKLYFTFQDDEKLYFGLSYAKNGELLKYIRKIGSFDETCTRFYTAEIVSALEYLHGKGIIHRDLKPENILLNEDMHIQITDFGTAKVLSPESKQARANSFVGTAQYVSPELLTEKSACKSSDLWALGCIIYQLVAGLPPFRAGNEYLIFQKIIKLEYDFPEKFFPKARDLVEKLLVLDATKRLGCEEMEGYGPLKAHPFFESVTWENLHQQTPPKLTAYLPAMSEDDEDCYGNYDNLLSQFGCMQVSSSSSSHSLSASDTGLPQRSGSNIEQYIHDLDSNSFELDLQFSEDEKRLLLEKQAGGNPWHQFVENNLILKMGPVDKRKGLFARRRQLLLTEGPHLYYVDPVNKVLKGEIPWSQELRPEAKNFKTFFVHTPNRTYYLMDPSGNAHKWCRKIQEVWRQRYQSHPDAAVQ
modifications: left off: small tags and cut ends
- maximum specific activity of GST-PKBα: ~30 U/mg
